For 1 compound, IC50 and Ki results are on record in patent US8609680B2, “2,3-dihydro-1H-inden-1-yl-2,7-diazaspiro[3.5] nonane derivatives” (Pfizer Inc., priority 2010, dated 2013).

Amino acid sequences for entries named in this document (tags omitted).
UniProt Q92847, whole entry: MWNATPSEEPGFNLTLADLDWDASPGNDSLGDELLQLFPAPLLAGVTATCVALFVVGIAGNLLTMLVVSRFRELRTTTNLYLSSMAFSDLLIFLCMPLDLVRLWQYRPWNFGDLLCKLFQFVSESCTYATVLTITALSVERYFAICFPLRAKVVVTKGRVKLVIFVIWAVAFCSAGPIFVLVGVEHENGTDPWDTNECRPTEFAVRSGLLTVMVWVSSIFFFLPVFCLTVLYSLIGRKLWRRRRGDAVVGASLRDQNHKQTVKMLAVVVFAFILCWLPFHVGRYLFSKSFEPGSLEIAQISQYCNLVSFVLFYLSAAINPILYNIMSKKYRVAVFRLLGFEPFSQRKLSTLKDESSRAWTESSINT

The IC50 is the concentration at which inhibition is half-maximal. High values mean lower potency, low ones higher potency. Usually Ki stands for a measure of affinity in units of concentration, obtained from inhibition or displacement. A high value points to lower affinity.

The target in this assay is human GHSR1a (Homo sapiens, UniProt Q92847). The experiment in a line: Human Ghrelin SPA Binding Assay. Particulars: SPA format, [125I] ghrelin displacement.

Structures are written as SMILES.

For the compound `CCc1ccc(CC(=O)N2CCC3(CC2)CN(C2CCc4cc(-n5nccn5)ccc42)C3)nc1` (racemic), the IC50 (human GHSR1a membranes from HEK293 Tetracycline-Inducible cell line) came out at 28.1 nM. For the same compound, the Ki (human GHSR1a membranes, Ki=IC50/(1+[ligand]/Kd)) turned out to be 26.4 nM.
